These results are taken from publication PMC5884906, “Single Administration of HBK-15—a Triple 5-HT1A, 5-HT7, and 5-HT3 Receptor Antagonist—Reverses Depressive-Like Behaviors in Mouse Model of Depression Induced by Corticosterone” (Molecular Neurobiology, 2017).

Sequences of proteins named here, by UniProt entry; tags and fusion partners are left off. Residues count along the entry.
UniProt O70212, 20-490: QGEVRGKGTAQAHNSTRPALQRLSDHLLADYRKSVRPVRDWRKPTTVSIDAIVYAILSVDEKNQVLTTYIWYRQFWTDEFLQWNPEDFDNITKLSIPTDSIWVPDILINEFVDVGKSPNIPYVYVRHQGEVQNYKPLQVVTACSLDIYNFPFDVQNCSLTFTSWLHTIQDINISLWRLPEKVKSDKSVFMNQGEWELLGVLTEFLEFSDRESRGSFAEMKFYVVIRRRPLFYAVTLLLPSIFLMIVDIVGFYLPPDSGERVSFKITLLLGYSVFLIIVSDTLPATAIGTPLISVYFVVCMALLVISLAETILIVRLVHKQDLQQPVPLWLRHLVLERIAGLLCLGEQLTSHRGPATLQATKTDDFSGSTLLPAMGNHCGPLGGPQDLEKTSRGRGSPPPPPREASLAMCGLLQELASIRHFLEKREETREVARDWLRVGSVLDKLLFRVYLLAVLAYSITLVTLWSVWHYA

For the experiment, the target named is T1, 5-HT3 receptors expressed in guinea pig ileum (Cavia porcellus, UniProt O70212).
T1 construct: A segment (15 cm) of male guinea pig ileum was excised from the small intestine; from tissue; host or cells: isolated male guinea pig ileum segments in an organ bath
Description: guinea pig ileum contractions induced by serotonin. It is filed as biochemical.

Broadly, the EC50 is the concentration at which the effect is half-maximal. With `NCCc1c[nH]c2ccc(O)cc12` [Serotonin, reference compound], the response was half-maximal at 1120 nM (EC50).
